In experiment [1] the target is polyamine binding site of the NR2B subunit of the NMDA receptor (Homo sapiens, UniProt Q05586+Q13224). The experiment can be described thus: Filtration-based receptor binding assay with [3H]-Ifenprodil as radioligand. Conditions: read-out: affinity to the NR2B binding site of the NMDA receptor; 5 nM [3H]-Ifenprodil; membrane homogenates of mouse L(tk-) cells transfected with NR1-1a/NR2B; 180 min at 37 °C; Ki mean of three experiments ± S.E.M.

By UniProt entry, the sequences of proteins in these tests, tags left out. Residues count along the entry.
UniProt Q13224, 27-1484 limits assumed: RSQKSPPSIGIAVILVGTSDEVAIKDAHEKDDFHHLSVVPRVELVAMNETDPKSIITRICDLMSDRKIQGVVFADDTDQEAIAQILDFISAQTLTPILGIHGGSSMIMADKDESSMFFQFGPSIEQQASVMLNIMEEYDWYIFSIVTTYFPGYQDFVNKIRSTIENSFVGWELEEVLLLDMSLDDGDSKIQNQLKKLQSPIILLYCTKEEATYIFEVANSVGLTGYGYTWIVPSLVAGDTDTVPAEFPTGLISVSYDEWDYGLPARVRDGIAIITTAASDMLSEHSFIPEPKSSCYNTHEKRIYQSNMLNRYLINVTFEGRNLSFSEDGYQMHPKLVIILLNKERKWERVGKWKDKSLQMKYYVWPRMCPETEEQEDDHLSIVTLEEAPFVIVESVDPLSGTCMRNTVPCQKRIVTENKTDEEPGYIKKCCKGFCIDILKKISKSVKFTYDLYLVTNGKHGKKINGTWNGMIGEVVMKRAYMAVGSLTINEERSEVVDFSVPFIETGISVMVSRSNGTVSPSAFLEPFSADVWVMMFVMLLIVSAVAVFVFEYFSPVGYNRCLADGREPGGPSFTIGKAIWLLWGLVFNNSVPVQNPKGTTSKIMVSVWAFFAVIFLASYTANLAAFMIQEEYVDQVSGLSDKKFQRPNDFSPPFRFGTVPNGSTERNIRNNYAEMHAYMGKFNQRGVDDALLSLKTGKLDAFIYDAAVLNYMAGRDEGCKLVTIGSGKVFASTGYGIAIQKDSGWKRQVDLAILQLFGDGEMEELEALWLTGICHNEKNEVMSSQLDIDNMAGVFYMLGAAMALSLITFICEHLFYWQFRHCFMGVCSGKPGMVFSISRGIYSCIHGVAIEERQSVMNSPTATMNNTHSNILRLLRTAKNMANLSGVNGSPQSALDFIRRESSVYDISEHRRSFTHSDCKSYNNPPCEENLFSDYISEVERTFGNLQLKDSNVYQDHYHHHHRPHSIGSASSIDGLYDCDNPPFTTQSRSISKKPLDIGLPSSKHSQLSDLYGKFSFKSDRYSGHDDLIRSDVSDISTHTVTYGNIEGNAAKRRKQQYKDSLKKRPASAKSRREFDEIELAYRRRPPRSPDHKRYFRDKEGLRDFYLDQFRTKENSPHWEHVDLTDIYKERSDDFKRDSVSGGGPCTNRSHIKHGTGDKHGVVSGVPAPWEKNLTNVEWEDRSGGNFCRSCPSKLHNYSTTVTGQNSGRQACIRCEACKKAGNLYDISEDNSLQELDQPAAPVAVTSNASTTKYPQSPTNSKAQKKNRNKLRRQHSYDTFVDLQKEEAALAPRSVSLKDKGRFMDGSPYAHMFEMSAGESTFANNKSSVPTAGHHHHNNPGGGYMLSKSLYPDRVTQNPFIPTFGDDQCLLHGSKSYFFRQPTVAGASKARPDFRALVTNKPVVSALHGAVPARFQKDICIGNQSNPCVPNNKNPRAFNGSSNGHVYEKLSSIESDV
UniProt Q5U3Y7, whole entry: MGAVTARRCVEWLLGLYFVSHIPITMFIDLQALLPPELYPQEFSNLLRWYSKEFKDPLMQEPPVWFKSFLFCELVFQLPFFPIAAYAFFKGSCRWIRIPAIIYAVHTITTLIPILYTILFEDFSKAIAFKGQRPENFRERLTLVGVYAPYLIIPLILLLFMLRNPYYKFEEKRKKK

A further experiment deals with σ2 receptor (Rattus norvegicus, UniProt Q5U3Y7). In words: Receptor binding assay with [3H]-ditolylguanidine on rat liver membranes. Conditions: read-out: affinity to the σ2 receptor, 3 nM [3H]-ditolylguanidine with 2 µM (+)-pentazocine, 180 min at room temperature, mean ± SEM.

One compound from patent publication EP2246331A1, “NR2B-selective NMDA-receptor antagonists” (Westfälische Wilhelms-Universität Münster, priority 2009, dated 2010) can be followed below.

For the compound `O=C(CCCN1CCc2cc(O)ccc2C(O)C1)c1ccc(F)cc1` (centres unmarked), the figures for the Ki (in experiment [1]; at σ2 receptor) were 0.0473 µM and 0.0335 µM, respectively.
